GIV Gai3 FP: inhibitors of GIV GBA-motif binding to rat Galpha-i3. actives 0.42% (n = 210,000). Galpha-i3/FITC-GIV peptide fluorescence polarization, 90 min; active compounds read low; scaled: aluminum fluoride 0%, vehicle 100%. AID 1224905. percent of control (FP), % (no concentration beside the values). P08753;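 active means replicate mean at 85% of control or lower, very high polarization wells dropped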;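 further: wells of about 15 µL received 100 nL stock; the first replicate is given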
HCMV UL50-53 inh: cytomegalovirus nuclear egress complex inhibition; HTRF UL50-UL53 interaction, normalized percent inhibition; inhibition, % (no concentration beside the values); hit rate 0.15% among 190,000; in the data active = inhibition above about 27%, passing the limit was not always enough
Hits are given with their value. An excerpt weighted towards active compounds, which were near 0.46% of everything screened.

Screening Cn1c(=O)c2[nH]c(SCC(=O)C(C)(C)C)nc2n(C)c1=O returned HCMV UL50-53 inh inactive.
`COC(=O)c1ccc(NC(=O)COc2ccccc2)cc1` gave HCMV UL50-53 inh inactive.
Screening CCC(C(=O)Nc1ccc2c(c1)nc(CCc1ccccc1)n2C)N1C(=O)COc2ccccc21 (centres undefined) returned GIV Gai3 FP inactive and HCMV UL50-53 inh inactive.
COC(=O)CN1C(=O)S/C(=C\c2ccccc2)C1=O was read as GIV Gai3 FP inactive and HCMV UL50-53 inh inactive.
Screening CCOC(=O)CN1C(=O)/C(=C/c2ccccc2)SC1=S returned HCMV UL50-53 inh inactive.
COC(=O)CN1C(=O)/C(=C\c2ccc(O)cc2)SC1=S was read as GIV Gai3 FP -41.9.
CCN1C(=O)/C(=C\c2ccc(OCC(N)=O)c(OC)c2)SC1=S was read as HCMV UL50-53 inh inactive.
`COC(=O)CN1C(=O)C(=Cc2ccc(N(C)C)cc2)SC1=S` gave GIV Gai3 FP -41.9.
For CCCN1C(=O)/C(=C/c2ccc(O)c(OC)c2)SC1=S the results were GIV Gai3 FP -34.0 and HCMV UL50-53 inh inactive.
Screening Cc1ccc(-c2n[nH]c3c2C(c2ccccc2[N+](=O)[O-])N(c2ccc(F)cc2)C3=O)cc1 (centres undefined) returned GIV Gai3 FP inactive.
For CC(C)n1c(N2CCN(C(=O)C3CCCCC3)CC2)cc(=O)n(C(C)C)c1=O the results were GIV Gai3 FP inactive.
Screening COc1ccc2nc(NC(=O)CN3C(=O)C(C(=O)N4CCCC4)Sc4ccccc43)sc2c1 (centres undefined) returned GIV Gai3 FP inactive.
For COCCNC(=O)N1CCCC(C)(C(=O)NCc2ccccc2)C1 (centres undefined) the results were GIV Gai3 FP inactive.
For CCCOc1ccc(C2NC(=O)NC(C)=C2C(=O)OCc2ccc3c(c2)OCO3)cc1 (centres undefined) the results were GIV Gai3 FP inactive.
Screening Cc1ccc(NC(=O)Nc2ccc3c(c2)N(C)C(=O)CS3)cc1 returned GIV Gai3 FP inactive.
CN1C(=O)CSc2ccc(NC(=O)Nc3cccnc3)cc21 was read as GIV Gai3 FP inactive and HCMV UL50-53 inh 34.7.
For COc1ccc(C(OCC2OC(n3ccc(=O)[nH]c3=O)C(O)C2O[Si](C)(C)C(C)(C)C)(c2ccccc2)c2ccc(OC)cc2)cc1 (centres undefined) the results were GIV Gai3 FP inactive.
Screening Cn1c(=O)[nH]c(=O)c2c1ncn2CCCNC1=NCCCC1 returned HCMV UL50-53 inh inactive.
For CC(C)Nc1nc2c(S(=O)(=O)c3ccccc3)nnn2c2ccsc12 the results were GIV Gai3 FP inactive and HCMV UL50-53 inh 37.0.
CCc1ccc(S(=O)(=O)c2nnn3c2nc(NC(C)C)c2sccc23)cc1 was read as GIV Gai3 FP inactive.
For CCOC(=O)Cn1cc(/C=C2\C(=O)NC(=O)N(c3ccc(Br)cc3)C2=O)c2ccccc21 the results were GIV Gai3 FP inactive and HCMV UL50-53 inh inactive.
`CCOC(=O)Cn1cc(/C=C2\C(=O)NC(=O)N(c3ccc(F)cc3)C2=O)c2ccccc21` gave GIV Gai3 FP -36.2.
CCC1CCCCN1C(=O)COC(=O)c1nc(Cl)c(Cl)c(N)c1Cl (centres undefined) was read as HCMV UL50-53 inh inactive.
Screening C1=C(c2ccccc2)Nc2ncnn2C1c1ccccc1 (centres undefined) returned HCMV UL50-53 inh inactive.
Screening COc1cc(C2C=C(c3cccs3)Nc3ncnn32)cc(OC)c1OC (centres undefined) returned GIV Gai3 FP -0.1.
Screening Cc1cc(C(=O)Cn2nnc3ccccc3c2=O)c(C)n1C returned HCMV UL50-53 inh inactive.
COc1cccc(CNC(=O)CN2C(=O)C(C)=C(c3ccc(C)c(C)c3)S2(=O)=O)c1 was read as GIV Gai3 FP inactive and HCMV UL50-53 inh inactive.
For CC(C)C/C=C1\CC/C(=C\c2ccc(N(C)C)cc2)C1=O the results were GIV Gai3 FP -73.9 and HCMV UL50-53 inh inactive.
Screening CN(C)c1ccc(/C=C2\CCC(=C3SCCCS3)C2=O)cc1 returned HCMV UL50-53 inh inactive.
`COc1cccc2c1CC/C(=C\c1ccc(N(C)C)cc1)C2=O` gave GIV Gai3 FP -68.6 and HCMV UL50-53 inh inactive.
Screening CCCN1C/C(=C\c2ccc(N(C)C)cc2)C(=O)/C(=C/c2ccc(N(C)C)cc2)C1 returned GIV Gai3 FP inactive and HCMV UL50-53 inh inactive.
CCN(CC)S(=O)(=O)c1ccc2nc(N3CCN(C4CCCCC4)CC3)cnc2c1 was read as GIV Gai3 FP inactive.
`CCNc1nc(OC)nc(Oc2ccc(OCC(=O)OC)nn2)n1` gave GIV Gai3 FP inactive and HCMV UL50-53 inh inactive.
Screening CC1(C)CC(=O)C2=C(C1)NC(=O)CC2c1cccc(O)c1 (centres undefined) returned GIV Gai3 FP inactive and HCMV UL50-53 inh inactive.
Screening COc1ccc(C(=O)NC(C(=O)Nc2ccc3c(c2)OCO3)C(C)C)cc1 (centres undefined) returned HCMV UL50-53 inh inactive.
`COc1ccc(/C=C2\N=C(c3ccc(Cl)cc3)N(c3ccccc3Br)C2=O)cc1OC` gave GIV Gai3 FP 66.7.
For COc1ccc(/C=C2\N=C(c3ccc(Cl)cc3)N(c3cc(Cl)ccc3C)C2=O)cc1OC the results were GIV Gai3 FP inactive.
`COc1ccccc1/C=C1\N=C(c2ccc(OC)c(OC)c2)N(c2ccc(Cl)cc2)C1=O` gave GIV Gai3 FP 76.7.
`COc1cccc(C2=N/C(=C\c3ccccc3OC)C(=O)N2c2ccc(C)c(F)c2)c1` gave GIV Gai3 FP 60.7.
Screening COc1cccc(C2=N/C(=C/c3ccccc3OC)C(=O)N2c2ccc(OC)c(OC)c2)c1 returned GIV Gai3 FP inactive.
For COc1ccccc1/C=C1\N=C(c2ccc(OC)c(OC)c2)N(c2ccc(Cl)c(Cl)c2)C1=O the results were GIV Gai3 FP inactive.
Screening O=c1cc(CSc2nnc(N3CCOCC3)n2-c2cccc(F)c2)nc2sc3c(n12)CCCC3 returned HCMV UL50-53 inh inactive.
Screening CC1C/C(=C/c2cccn2C)C(=O)/C(=C/c2cccn2C)C1 (centres undefined) returned GIV Gai3 FP -74.8.
`O=C1/C(=C/c2cccs2)CN(Cc2ccccc2)C/C1=C\c1cccs1` gave GIV Gai3 FP inactive and HCMV UL50-53 inh inactive.
Cn1cccc1/C=C1\CN(Cc2ccccc2)C/C(=C\c2cccn2C)C1=O was read as GIV Gai3 FP -87.6 and HCMV UL50-53 inh inactive.
For Cn1cccc1/C=C1\CC(c2ccccc2)C/C(=C\c2cccn2C)C1=O (centres undefined) the results were GIV Gai3 FP inactive and HCMV UL50-53 inh inactive.
Cc1ccc(NC(=O)Cn2cnc3sc(C(=O)Nc4cccc(C(F)(F)F)c4)c(C)c3c2=O)cc1Cl was read as GIV Gai3 FP inactive.
For Cc1noc(C)c1S(=O)(=O)N1CCCC1c1ccco1 (centres undefined) the results were GIV Gai3 FP inactive and HCMV UL50-53 inh inactive.
For COc1cc(/C=C(\C#N)C(=O)C(C)(C)C)ccc1O the results were HCMV UL50-53 inh inactive.
Screening COc1cc(/C=C(\C#N)C(=O)c2ccc(O)c(O)c2)cc(I)c1O returned GIV Gai3 FP -30.6 and HCMV UL50-53 inh inactive.
Screening O=C(CSc1nnc2ccc(C(=O)NCc3ccccc3)cn12)Nc1ccc(Br)cc1 returned GIV Gai3 FP inactive.
`CCCN1CC=C2C(C1)C(c1ccc(C(=O)OC)cc1)C(C#N)=C(N)C2(C#N)C#N` (centres undefined) gave GIV Gai3 FP inactive and HCMV UL50-53 inh inactive.
